In PubChem BioAssay AID493087 (The Scripps Research Institute Molecular Screening Center, 2011):
Only a part is listed here, and it is no random draw. Some salts and complexes are drawn in separate pieces, as the source files them; their charges need not balance. Active and inactive are the calls of the source.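 Rule for the calls: active = activation above the mean of all tested compounds plus 3 SD, set per screening campaign (cut at about 17% in these data); inactive = the rest.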

The chains behind the UniProt entries cited, without tags or fusion partners.
UniProt P14735, whole entry: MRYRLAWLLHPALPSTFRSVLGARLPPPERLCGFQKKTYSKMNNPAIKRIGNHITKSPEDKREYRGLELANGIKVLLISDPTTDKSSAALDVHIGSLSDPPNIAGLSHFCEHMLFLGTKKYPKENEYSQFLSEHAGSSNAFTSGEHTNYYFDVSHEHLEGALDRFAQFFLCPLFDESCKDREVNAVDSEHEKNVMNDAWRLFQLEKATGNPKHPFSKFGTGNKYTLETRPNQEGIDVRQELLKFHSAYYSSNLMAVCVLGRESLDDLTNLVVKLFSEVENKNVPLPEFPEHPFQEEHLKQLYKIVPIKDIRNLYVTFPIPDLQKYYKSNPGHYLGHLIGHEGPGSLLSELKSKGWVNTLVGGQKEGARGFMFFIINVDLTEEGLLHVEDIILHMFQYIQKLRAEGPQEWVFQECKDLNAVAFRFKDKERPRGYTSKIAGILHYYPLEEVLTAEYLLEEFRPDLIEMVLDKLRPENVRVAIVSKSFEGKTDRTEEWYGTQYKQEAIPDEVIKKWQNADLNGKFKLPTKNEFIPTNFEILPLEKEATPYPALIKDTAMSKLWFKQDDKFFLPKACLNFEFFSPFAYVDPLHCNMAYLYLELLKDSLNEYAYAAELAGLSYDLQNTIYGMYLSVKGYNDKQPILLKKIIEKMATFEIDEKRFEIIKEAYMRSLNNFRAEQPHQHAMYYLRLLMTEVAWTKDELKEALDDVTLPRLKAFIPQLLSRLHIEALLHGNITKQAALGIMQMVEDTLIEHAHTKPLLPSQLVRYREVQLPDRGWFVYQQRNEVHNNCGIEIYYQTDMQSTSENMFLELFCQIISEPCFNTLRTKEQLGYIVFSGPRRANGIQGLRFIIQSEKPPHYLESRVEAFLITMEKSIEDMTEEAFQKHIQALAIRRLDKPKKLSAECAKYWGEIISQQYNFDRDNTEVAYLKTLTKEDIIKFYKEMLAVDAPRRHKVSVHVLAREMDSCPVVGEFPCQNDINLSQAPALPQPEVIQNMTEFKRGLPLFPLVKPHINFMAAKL

The molecules below were run against Insulin-degrading enzyme (Homo sapiens) (UniProt P14735) (assay: human IDE activators in live cells, primary screen, fluorescence polarization, HEK cells, FAbeta-B substrate (AID 493087)). Settings: FAbeta-B cleavage, at 5.96 µM, hits give high values, 0% vehicle, 100% cell-free pure enzyme wells.

SMILES | activation
COc1ccc2c(c1O)-c1c(O)c(OC)cc3c1[C@H](C2)[N+](C)(C)CC3.O=[N+]([O-])c1cc([N+](=O)[O-])c([O-])c([N+](=O)[O-])c1[O-] | inactive: 3.16%
O=C(OC1CN2CCC1CC2)c1ccc([N+](=O)[O-])cc1 (centres undefined) | inactive: 4.17%
O=C(OCCN1CCN(CCOCc2ccccc2)CC1)C(O)(c1ccccc1)c1ccccc1 | inactive: 5.02%
CP(=O)(Nc1ccccc1F)Oc1ccccc1 (centres undefined) | inactive: -0.2%
CC(C)c1ccc(OP(C)(=O)Nc2ccc(SC(F)(F)F)cc2)cc1 (centres undefined) | inactive: 6.3%
CP(=O)(Nc1ccccc1)Oc1ccc(F)cc1 (centres undefined) | inactive: -6.06%
O=[N+]([O-])c1cc([N+](=O)[O-])c(OC2CCCCC2O)c([N+](=O)[O-])c1 (centres undefined) | inactive: 2.24%
CCCCCOc1ccc(NP(C)(=O)Oc2ccc(Cl)cc2Cl)cc1 (centres undefined) | inactive: 3.67%
Cc1c([N+](=O)[O-])cc([N+](=O)[O-])c(Br)c1[N+](=O)[O-] | inactive: 0.25%
CCN(CC)CCCOC(=O)C(O)(c1ccccc1)C1CCCCC1 (centres undefined) | inactive: 0.18%
CCOC(=O)c1ccc(NP(C)(=O)Oc2ccc(F)cc2)cc1 (centres undefined) | inactive: -3.25%
COc1ccc(OP(C)(=O)Nc2ccc(SC(F)(F)F)cc2)cc1 (centres undefined) | inactive: 3.1%
Cc1c(C(c2ccc3c(c2)OCO3)c2c(C)n(C)n(-c3ccccc3)c2=O)c(=O)n(-c2ccccc2)n1C.O=[N+]([O-])c1cc([N+](=O)[O-])c(O)c([N+](=O)[O-])c1 | inactive: 0.1%
O=[N+]([O-])c1ccc(OP2(=O)COCCO2)cc1 (centres undefined) | inactive: -1.54%
Cc1cc(-c2cccc3ccccc23)c(C)cn1.O=[N+]([O-])c1cc([N+](=O)[O-])c(O)c([N+](=O)[O-])c1 | inactive: 13.4%
O=[N+]([O-])c1cc([N+](=O)[O-])c(NCC2CCS(=O)(=O)C2)c([N+](=O)[O-])c1 (centres undefined) | inactive: 0.08%
CN(C)CCOC(=O)C(O)(c1ccccc1)C1CCCCC1 (centres undefined) | inactive: 2.18%
COc1ccc(NP(C)(=O)Oc2ccccc2OC)cc1 (centres undefined) | inactive: -2.9%
COc1ccc(OP(C)(=O)Nc2cccc(Br)c2)cc1 (centres undefined) | inactive: 0.45%
Cc1ccccc1NP(C)(=O)Nc1ccccc1C | inactive: 3.07%
CP(=O)(Nc1ccc2c(c1)OCCO2)Oc1ccccc1 (centres undefined) | inactive: 5.02%
CCOP(C)(=S)SCC(=O)NC(C)(CC)C(=O)O (centres undefined) | inactive: -0.19%
CP(=O)(Nc1ccc(SC(F)(F)F)cc1)Oc1ccc(F)cc1 (centres undefined) | inactive: 2.12%

SMILES | activation
CN(C)C(=O)c1c([N+](=O)[O-])cc([N+](=O)[O-])cc1[N+](=O)[O-] | inactive: 1.27%
CC(C)(C)c1ccc(OP(C)(=O)O)cc1 | inactive: -1.52%
COc1ccccc1OP(C)(=O)Nc1ccccc1Br (centres undefined) | inactive: -2.49%
CP(=O)(Nc1ccc(Cl)cc1)Oc1ccc(F)cc1 (centres undefined) | inactive: -3.53%
COc1ccccc1OP(C)(=O)Nc1c(C)n(C)n(-c2ccccc2)c1=O (centres undefined) | inactive: 0%
O=C(OCCCN1CCCC1)C(O)(c1ccccc1)C1CCCCC1 (centres undefined) | inactive: 10.8%
CP(=O)(Oc1ccccc1)N1CCOC1=O (centres undefined) | inactive: 0.84%
CCc1ccc(OP(C)(=O)Nc2cccnc2)cc1 (centres undefined) | inactive: 2.89%
CCN(CC)CC(O)COC(=O)C(O)(c1ccccc1)C1CCCCC1 (centres undefined) | inactive: 5.07%
COc1ccc(OP(C)(=O)Nc2ccc(Br)cc2)cc1 (centres undefined) | inactive: -6.66%
CCOC(=O)c1ccc(NP(C)(=O)Oc2ccc(Cl)cc2)cc1 (centres undefined) | inactive: -0.75%
CP(=O)(OC12CC3CC(CC(C3)C1)C2)OC12CC3CC(CC(C3)C1)C2 | inactive: 3.1%
CP(=O)(OCCOc1ccccc1)OCCOc1ccccc1 | inactive: 7.29%
CP(=O)(Nc1ccc(Cl)cc1Cl)Oc1ccccc1 (centres undefined) | inactive: 0.77%
CCCCCCCCCCCCCCCC1C[N+](C)(C)CCOP(C)(=O)O1 (centres undefined) | inactive: 7.07%
COc1ccccc1OP(C)(=O)Nc1ccc(C)c(C)c1 (centres undefined) | inactive: -2.36%
COc1ccc(OP(C)(=O)Nc2ccccc2Br)cc1 (centres undefined) | inactive: 0.86%
O=C1C(O)=C([N+](=O)[O-])C(=O)C(O)=C1[N+](=O)[O-] | inactive: 4.61%
Cc1cc(C)cc(OP(C)(=O)Nc2cccc(C(F)(F)F)c2)c1 (centres undefined) | inactive: 5.64%
CP(=O)(Nc1ccccn1)Oc1ccccc1 (centres undefined) | inactive: 2.4%
COc1ccccc1OP(C)(=O)Nc1ccc(C)cc1C (centres undefined) | inactive: 5.87%
CCc1ccc(OP(C)(=O)O)cc1 | inactive: 4.91%
O=[N+]([O-])c1cc([N+](=O)[O-])c(Nc2ccccn2)c([N+](=O)[O-])c1 | inactive: 3.24%

SMILES | activation
Cc1c(NP(C)(=O)Oc2ccc(C(C)C)cc2)c(=O)n(-c2ccccc2)n1C (centres undefined) | inactive: -0.94%
COc1ccc(OP(C)(=O)Nc2ccccn2)cc1 (centres undefined) | inactive: -2.61%
CN(C)CCOC(=O)C(O)(c1ccccc1)C1CCCC1 (centres undefined) | inactive: 6.44%
COc1ccccc1OP(C)(=O)Nc1ccc(Br)cc1 (centres undefined) | inactive: 3.16%
CCN(CC)CCCOC(=O)C(O)(c1ccccc1)c1ccccc1 | inactive: 2.73%
Cc1cc(C)cc(OP(C)(N)=O)c1 (centres undefined) | inactive: -2.24%
COc1ccccc1OP(C)(=O)Nc1cc(Cl)ccc1C (centres undefined) | inactive: -4.49%
COc1ccc(OP(C)(=O)Nc2cccc(F)c2)cc1 (centres undefined) | inactive: -4.08%
COc1ccccc1OP(C)(=O)Nc1ccc(C)cc1 (centres undefined) | inactive: 5.57%
Cc1ccc(NP(C)(=O)Oc2ccccc2)c(C)c1 (centres undefined) | inactive: 0.75%
CCOC(=O)c1ccc(NP(C)(=O)Oc2ccccc2)cc1 (centres undefined) | inactive: 5.61%
O=[N+]([O-])c1ccc2c(c1)C=Nc1ccccc1O2 | inactive: 3.29%
CC(C)(C)c1ccc(OP(C)(=O)Nc2ccc(SC(F)(F)F)cc2)cc1 (centres undefined) | inactive: -5.04%
Cc1cccc(C)c1OP(C)(N)=O (centres undefined) | inactive: -3.5%
O=[N+]([O-])c1cc([N+](=O)[O-])c(Nc2cccnc2)c([N+](=O)[O-])c1 | inactive: -1.17%
CP(=O)(Nc1ccccc1Br)Oc1ccccc1 (centres undefined) | inactive: -2.94%
CP(=S)(Nn1cnnc1)Oc1ccccc1 (centres undefined) | inactive: 3.31%
CP(=O)(Nc1ccccn1)Oc1ccc(Cl)cc1 (centres undefined) | inactive: -3.57%
CCOC(=O)c1ccc(NP(C)(=O)Oc2ccc(OC)cc2)cc1 (centres undefined) | inactive: -1.97%
CCOP(C)(=S)SCC(=O)NC(C)C(=O)O (centres undefined) | inactive: 0.53%
CCc1ccc(OP(C)(=O)N2CCN(c3ccc([N+](=O)[O-])cc3)CC2)cc1 (centres undefined) | inactive: -4.05%
CP(=O)(NC(=O)Nc1ccccc1)Oc1ccccc1 (centres undefined) | inactive: 4.97%
Cc1cc(C)cc(OP(C)(=O)Nc2ccc(SC(F)(F)F)cc2)c1 (centres undefined) | inactive: 6%

SMILES | activation
Cc1cccc(C)c1OP(C)(=O)Nc1ccc(SC(F)(F)F)cc1 (centres undefined) | inactive: 2.38%
CP(=O)(Oc1ccccc1)OC(c1ccccc1)C(F)(F)F (centres undefined) | inactive: 2.42%
Cc1nc2ccc3ccccc3c2s1.O=[N+]([O-])c1cc([N+](=O)[O-])c(O)c([N+](=O)[O-])c1 | inactive: -7.31%
O=[N+]([O-])c1cc([N+](=O)[O-])c(-c2cnn(-c3ccccc3)c2)c([N+](=O)[O-])c1 | inactive: 1.72%
O=[N+]([O-])c1cc([N+](=O)[O-])c(-n2nnc3ccccc32)c([N+](=O)[O-])c1 | inactive: 5.12%
CP(=O)(Nc1ccc(SC(F)(F)F)cc1)Oc1ccccc1 (centres undefined) | inactive: 2.07%
CCCOc1ccc(NP(C)(=O)Oc2ccc(Cl)cc2)cc1 (centres undefined) | inactive: 0.31%
CN1CCCCC1COC(=O)C1(O)c2ccccc2CCc2ccccc21 (centres undefined) | inactive: 4.03%
COc1ccccc1OP(C)(=O)Nc1c(C)cccc1C (centres undefined) | inactive: -3.3%
O=[N+]([O-])c1cc([N+](=O)[O-])c(Nc2nnnn2CCO)c([N+](=O)[O-])c1 | inactive: 2.78%
CC1=C2N=C(C=C3N=C(C(C)=C4[N-][C@@](C)([C@@H]5N=C1[C@](C)(CCC(=O)NC[C@@H](C)OP(=O)([O-])O[C@H]1[C@@H](O)[C@@H](n6cnc7cc(C)c(C)cc76)O[C@@H]1CO)[C@H]5CC(N)=O)[C@@](C)(CC(N)=O)[C@@H]4CCC(N)=O)[C@@](C)(CC(N)=O)[C@@H]3CCC(N)=O)C(C)(C)[C@@H]2CCC(N)=O.[C-]#N.[Co+3] | inactive: 6.23%
CCOC(=O)C(CC)C1=NC(C)(C)Cc2ccccc21.O=[N+]([O-])c1cc([N+](=O)[O-])c(O)c([N+](=O)[O-])c1 (centres undefined) | inactive: -1.51%
CC1=NCCc2c1[nH]c1ccccc21.O=[N+]([O-])c1cc([N+](=O)[O-])c(O)c([N+](=O)[O-])c1 | inactive: 2.2%
O=C(O)c1cccc(Nc2c([N+](=O)[O-])cc([N+](=O)[O-])cc2[N+](=O)[O-])c1 | inactive: 1.18%
Cc1ccc(C)c(NP(C)(=O)Oc2ccccc2)c1 (centres undefined) | inactive: 2.55%
CP(=O)(Nc1cccc(Br)c1)Oc1ccccc1 (centres undefined) | inactive: 5.33%
Cc1cc(C)cc(OP(C)(=O)Nc2ccccn2)c1 (centres undefined) | inactive: 1.06%
CCOC(=O)c1ccc(NP(C)(=O)Oc2cc(C)cc(C)c2)cc1 (centres undefined) | inactive: 2.75%
Cc1cc(C)cc(OP(C)(=O)Nc2ccc(C)cc2C)c1 (centres undefined) | inactive: 0.9%
COc1ccccc1OP(C)(=O)Nc1cccc(Br)c1 (centres undefined) | inactive: 2.59%
